Source: patent publication US20170074857A1, “MEDICATION ADHERENCE MONITORING DEVICE” (UNIVERSITY OF FLORIDA RESEARCH FOUNDATION, INC., priority 2014, published 2017)

Assays:
[1] = rats; Dietz; cited from earlier work
[2] = cited from earlier work
[3] = orally; FDA Q3C guidance; cited from earlier work

For 2-butanol [Formulation 2-butanol], the “ingested 2-butanol metabolized to 2-butanone” value [1] is given as “approximately 97%”, the “LD50 Oral Rat” value [2] is given as 6480 mg/kg and the “ketone:alcohol ratio 2-butanone/2-butanol in breath” value (2-butanol ingested (oral)) is given as > 1. For the same substance, the “ketone:alcohol ratio 2-butanone/2-butanol in breath” value (non-oral routes (e.g., transdermal, mucous membranes, intravenous, eye)) was < 1 and the “permissible daily exposure (PDE)” value [3] was 300 mg/day.

Like-named read-outs stand apart in the source and are kept apart here.
